Source: patent publication US5427922A (Takeda Chemical Industries, Ltd., priority 1992, dated 1995)

Chains of the proteins cited; added tags and fusions are not shown.
UniProt P30556, whole entry Q187R/F204S/L205C/K232N/K240R/L268Q/C289W/R311K/Y312D/F313I: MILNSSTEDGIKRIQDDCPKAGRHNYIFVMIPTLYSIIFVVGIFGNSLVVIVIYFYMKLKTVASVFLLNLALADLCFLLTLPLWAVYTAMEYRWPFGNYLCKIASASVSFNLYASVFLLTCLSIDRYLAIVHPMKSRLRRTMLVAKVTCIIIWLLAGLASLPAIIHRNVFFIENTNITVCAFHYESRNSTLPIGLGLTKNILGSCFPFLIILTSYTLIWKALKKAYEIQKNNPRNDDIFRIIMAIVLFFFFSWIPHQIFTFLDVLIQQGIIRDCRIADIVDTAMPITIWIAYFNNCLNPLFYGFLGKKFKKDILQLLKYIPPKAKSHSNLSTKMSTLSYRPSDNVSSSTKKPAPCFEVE

Target: Ang II type 1 receptor from human placenta (Homo sapiens, UniProt P30556)
Assay: Radio-labeled Ang II binding activity in animal cells (COS7/pHARp306) expressing full-length Ang II type 1 receptor gene from human placenta
Conditions: 10 μM agonist or antagonist added; 100 pM [125I]-Ang II; room temperature, 60 minutes; control (none) 84,148 cpm

Compound: CCCCc1nc(Cl)c(CO)n1Cc1ccc(-c2ccccc2-c2nn[nH]n2)cc1 [DuP753]
- Radioactivity (bound [125I]-labeled Ang II): 1,246 cpm
